Measured values: publication PMC2363969, “gp100/pmel17 and tyrosinase encode multiple epitopes recognized by Th1-type CD4+T cells” (British Journal of Cancer, 2001)

What was measured:
HLA-DRB1*0401 = HLA-DRB1*0401 (Homo sapiens, UniProt P01903+P01911, A100K/A169T/F76Y/I96L/K127E/L162R/M171V/N62H/P40V/Q125Y/R42H/S133A/S149N/S66Y/V115G/V209L/W38E); test: solid-state competitive-binding assay, purified HLA-DR4
HLA-DRB1*0404 = HLA-DRB1*0404 (Homo sapiens, UniProt P01903+P01911, A100R/A169T/F76Y/I96L/K127E/L162R/M171V/N62H/P40V/Q125Y/R42H/S133A/S149N/S66Y/V209L/W38E); test: as above

SMILES: CC[C@H](C)[C@H](NC(=O)[C@H](CC(N)=O)NC(=O)[C@@H](NC(=O)[C@H](CC(=O)O)NC(=O)[C@H](CC(N)=O)NC(=O)[C@H](Cc1ccccc1)NC(=O)[C@H](CCSC)NC(=O)[C@@H]1CCCN1C(=O)[C@@H](NC(=O)[C@H](CO)NC(=O)CNC(=O)[C@H](CC(N)=O)NC(=O)[C@H](CCCCN)NC(=O)[C@H](CCSC)NC(=O)[C@H](CCC(N)=O)NC(=O)CNC(=O)[C@@H](N)Cc1ccc(O)cc1)[C@@H](C)O)[C@@H](C)CC)C(=O)N[C@@H](Cc1ccc(O)cc1)C(=O)N[C@@H](CC(=O)O)C(=O)N[C@@H](CC(C)C)C(=O)O [tyrosinase156-175]
- IC50 (HLA-DRB1*0401): 1.39 µM

SMILES: CC[C@H](C)[C@H](NC(=O)[C@H](CO)NC(=O)[C@@H](NC(=O)[C@H](CCC(=O)O)NC(=O)[C@H](C)NC(=O)[C@@H]1CCCN1C(=O)[C@@H](NC(=O)[C@@H](N)CCSC)[C@@H](C)O)C(C)C)C(=O)N[C@H](C(=O)N[C@H](C(=O)N[C@@H](CC(C)C)C(=O)N[C@@H](CO)C(=O)NCC(=O)N[C@H](C(=O)N[C@H](C(=O)N[C@@H](C)C(=O)N[C@@H](C)C(=O)N[C@@H](CCC(N)=O)C(=O)N[C@H](C(=O)N[C@H](C(=O)N[C@H](C(=O)N[C@H](C(=O)O)[C@@H](C)O)[C@@H](C)O)[C@@H](C)O)C(C)C)[C@@H](C)O)[C@@H](C)O)C(C)C)C(C)C [gp100/pmel17400-421]
- IC50 (HLA-DRB1*0404): 0.017 µM

SMILES: CSCC[C@H](NC(=O)[C@H](CCC(=O)O)NC(=O)[C@H](C)NC(=O)[C@H](CC(C)C)NC(=O)[C@@H](NC(=O)[C@@H](NC(=O)CNC(=O)[C@H](CCSC)NC(=O)[C@@H](NC(=O)[C@H](CCC(=O)O)NC(=O)[C@H](CO)NC(=O)[C@@H](NC(=O)[C@@H]1CCCN1C(=O)[C@@H](NC(=O)[C@H](CCCCN)NC(=O)[C@@H](N)CCC(=O)O)C(C)C)C(C)C)C(C)C)[C@@H](C)O)[C@@H](C)O)C(=O)N[C@@H](CO)C(=O)N[C@H](C(=O)N1CCC[C@H]1C(=O)N[C@@H](CCC(=O)O)C(=O)N[C@@H](C)C(=O)N[C@H](C(=O)O)[C@@H](C)O)[C@@H](C)O [gp100/pmel17377-398]
- IC50 (HLA-DRB1*0401): 7.01 µM

SMILES: CC[C@H](C)[C@H](N)C(=O)N[C@@H](Cc1ccc(O)cc1)C(=O)N[C@@H](CCCNC(=N)N)C(=O)N[C@@H](CCCNC(=N)N)C(=O)N[C@@H](CCCNC(=N)N)C(=O)N[C@@H](CC(C)C)C(=O)N[C@@H](CCSC)C(=O)N[C@@H](CCCCN)C(=O)N[C@@H](CCC(N)=O)C(=O)N[C@@H](CC(=O)O)C(=O)N[C@@H](Cc1ccccc1)C(=O)N[C@@H](CO)C(=O)N[C@H](C(=O)N1CCC[C@H]1C(=O)N[C@@H](CCC(N)=O)C(=O)N[C@@H](CC(C)C)C(=O)N1CCC[C@H]1C(=O)N[C@@H](Cc1c[nH]cn1)C(=O)N[C@@H](CO)C(=O)O)C(C)C [gp100615-633 /pmel17622-640]
- IC50 (HLA-DRB1*0401): 0.051 µM
